The values below come from ChEMBL document CHEMBL3632621, “Conformationally restricted κ-opioid receptor agonists: Synthesis and pharmacological evaluation of diastereoisomeric and enantiomeric decahydroquinoxalines” (Bioorg Med Chem Lett, 2015).

Sequences of proteins named here, by UniProt entry; tags and fusion partners are left off. A change or cut given only in a name is not applied to a line headed by its entry.
UniProt P41144: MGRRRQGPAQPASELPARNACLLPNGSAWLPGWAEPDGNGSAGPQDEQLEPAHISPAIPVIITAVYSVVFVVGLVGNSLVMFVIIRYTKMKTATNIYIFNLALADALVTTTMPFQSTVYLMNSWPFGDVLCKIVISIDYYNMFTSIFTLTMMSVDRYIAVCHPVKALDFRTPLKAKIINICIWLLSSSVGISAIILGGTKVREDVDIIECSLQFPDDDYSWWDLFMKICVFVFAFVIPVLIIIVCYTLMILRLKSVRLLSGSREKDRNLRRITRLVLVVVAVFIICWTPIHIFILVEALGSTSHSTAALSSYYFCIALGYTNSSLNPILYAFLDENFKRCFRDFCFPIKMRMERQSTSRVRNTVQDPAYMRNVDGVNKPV

This test concerns the target Kappa-type opioid receptor (Cavia porcellus, UniProt P41144).

For orientation: Ki means a measure of affinity in units of concentration, obtained from inhibition or displacement. A higher Ki goes with lower affinity. Compound `CN(C(=O)Cc1ccc(Cl)c(Cl)c1)[C@H]1CCCC[C@@H]1N1CCCC1` had a Ki of 0.34 nM.
